Among the data in ChEMBL document CHEMBL1138134, “Phthalazinones 2: Optimisation and synthesis of novel potent inhibitors of poly(ADP-ribose)polymerase” (Bioorg Med Chem Lett, 2006) are IC50 values, retold here.

Protein sequences, listed by entry. Tags and fused reporters are not part of them.
UniProt P09874, whole entry: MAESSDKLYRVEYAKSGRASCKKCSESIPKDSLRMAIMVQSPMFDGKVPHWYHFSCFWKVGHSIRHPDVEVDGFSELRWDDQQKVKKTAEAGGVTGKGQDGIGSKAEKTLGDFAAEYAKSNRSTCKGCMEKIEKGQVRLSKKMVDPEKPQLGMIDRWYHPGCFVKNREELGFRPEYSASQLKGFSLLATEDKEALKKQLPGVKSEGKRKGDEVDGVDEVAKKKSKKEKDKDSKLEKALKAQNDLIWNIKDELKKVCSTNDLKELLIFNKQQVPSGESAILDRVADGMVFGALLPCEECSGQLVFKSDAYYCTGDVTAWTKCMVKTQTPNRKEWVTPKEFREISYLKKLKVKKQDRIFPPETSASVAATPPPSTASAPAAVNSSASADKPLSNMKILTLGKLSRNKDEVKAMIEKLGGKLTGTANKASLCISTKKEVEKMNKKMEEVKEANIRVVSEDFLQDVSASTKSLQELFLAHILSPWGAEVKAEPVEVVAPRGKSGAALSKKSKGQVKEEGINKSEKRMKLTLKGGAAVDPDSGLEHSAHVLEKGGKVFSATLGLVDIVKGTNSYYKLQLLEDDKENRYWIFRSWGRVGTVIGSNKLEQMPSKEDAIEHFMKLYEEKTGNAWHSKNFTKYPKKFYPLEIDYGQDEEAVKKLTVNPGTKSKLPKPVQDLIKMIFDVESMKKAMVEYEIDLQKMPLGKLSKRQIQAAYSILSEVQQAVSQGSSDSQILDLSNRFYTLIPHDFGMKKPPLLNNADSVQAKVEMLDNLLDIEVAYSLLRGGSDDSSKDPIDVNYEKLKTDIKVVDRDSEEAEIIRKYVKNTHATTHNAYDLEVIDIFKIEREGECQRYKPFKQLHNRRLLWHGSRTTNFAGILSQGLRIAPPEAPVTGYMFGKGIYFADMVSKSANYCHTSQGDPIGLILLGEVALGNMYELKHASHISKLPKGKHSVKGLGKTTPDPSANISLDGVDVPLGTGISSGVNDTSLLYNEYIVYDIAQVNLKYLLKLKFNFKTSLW

The test deals with Poly [ADP-ribose] polymerase 1 (Homo sapiens, UniProt P09874). The test is described as follows: Inhibitory activity against PARP1.

For the compound `O=C(c1cc(Cc2n[nH]c(=O)c3ccccc23)ccc1F)N1CCCN(C2CCCCC2)CC1`, the IC50 – broadly, the concentration that inhibits the measured activity by half – is 5 nM.

`O=C(c1cccc(Cc2n[nH]c(=O)c3ccccc23)c1)N1CCNCC1` yielded an IC50 of 16 nM.
